Results published in US20090155799A1 (published 2009).

Experiments:
[1] = molecular target: T1, Recombinant hREG4 (rhREG4), myc-His tagged, purified from culture supernatant of REG4 mH/293T cells (human, UniProt Q9BYZ8 23-158); experiment: immunoprecipitation of tagged antigen from culture supernatant on Protein G Sepharose, Western blot detection
T1 construct: The REG4 ORF was cloned in frame with the myc-His tag and the protein was secreted into the supernatant of 293T cells; also called purified antigen; tagged antigen

[2] = molecular target: T2, REG4 protein, native human (in patient serum and in PDAC tissue) (human, UniProt Q9BYZ8 23-158); experiment: sandwich ELISA on serum specimens, immobilized monoclonal antibody, HRP-labeled anti-REG4 polyclonal antibody for detection
T2 construct: Endogenous protein in human serum specimens and tissue sections; also called serum REG4; REGIV
Procedure: C8 MAXI NUNC-Immuno BreakApart Module (NUNC) was used as a microplate for the sandwich ELISA. Anti-REG4 monoclonal antibodies (clone 21-1, 24-1, and 34-1) were diluted with 0.1 M carbonate buffer (pH 9.6) to 10 μg/mL, added to the microplate at 50 μL/well, and left to stand overnight at 4° C. to immobilize each antibody by physical adsorption. After blocking with 1% BAS/PBS (RT, 2 hours), the blocking solution was discarded, and the residues were air-dried to prepare an assay plate. Specimens were diluted 5 times in reaction buffer (PBS, 0.1% Tween20, 1% BSA, pH 7.3), added to the assay plate at 50 μL/well, and reacted at room temperature for one hour. After washing four times with washing buffer (0.13% Tween20, 0.15 M NaCl/10 mM NaH₂PO₄), an HRP-labeled anti-REG4 polyclonal antibody was adjusted to 1.5 μg/mL with an enzyme-labeled antibody diluent (1% BAS, 0.135 M NaCl/20 mM HEPES) and added at 50 µL/well. After reaction at the room temperature for one hour, the plate was washed four times with washing buffer. An enzyme substrate solution (Moss Inc.; TMB Ultra Sensitive Substrate) was added at 50 μL/well for coloring, and after 30 minutes, 0.36NH₂SO₄ was added at 50 μL/well to terminate the color reaction. The absorbance (A450/A620) was measured to calculate REG4 concentration in the serum based on the calibration curves of each antibody (FIG. 7).

- binding result [1]: binds
- binding result [2]: binds
B1: anti-REG4 mouse monoclonal antibody clone 21-1 (antibody, V domains shown)
VH: EVQLQQSGTVLARPGASVKMSCKASGYTFTSYWMHWVKQRPGQGLEWIGAIYPGNSDTSYNQKFKGKAKLTAVTSTSTAYMELSSLTNEDSAVYYCTGPSLLGFAYWGQGTLVTVSA
VL: DIVMTQSHKFMSTSVGDRVSITCKASQDVSTAVAWYQQKPGQSPKLLIYSASYRYTGVPDRFTGSGSGTDFTFTISSVQAEDLAVYYCQQHYSTPRTFGGGTKL
notes: also called monoclonal clone 21-1 antibody
